Source: patent US12331121B2, “Efflux pump-cancer antigen multi-specific antibodies and compositions, reagents, kits and methods related thereto” (William Robert Arathoon Living Trust Dated August 29, 2016, priority 2019, dated 2025)

How the values were obtained:
[1] = target: MDR1 (293T cells overexpressing MDR1) (Homo sapiens, UniProt P08183)
[2] = target: EGFR (Homo sapiens, UniProt P00533); test: EGFR binding by ELISA; conditions: for binding to EGFR (FIG. 31 summary): measured by ELISA or FACS

| binding to EGFR (FIG. 31 summary) [2] | binding to EGFR by ELISA [2] | Substance | binding to MDR1 by FACS [1] |
| --- | --- | --- | --- |
| binds to both MDR-1 and EGFR |  | 15D3 DD HC::cetuximab KK HC::15D3 LC: anti-MDR1 anti-EGFR bispecific antibody version 3 | binds to both MDR-1 and EGFR |
|  | retained binding | 15D3 DD HC::cetuximab KK HC::MRK16 LC: anti-MDR1 anti-EGFR bispecific antibody | retained binding |
|  | retained binding | MRK16 DD HC::cetuximab KK HC::15D3 LC: anti-MDR1 anti-EGFR bispecific antibody version 2 | retained binding |
| binding to EGFR with a lower affinity |  | MRK16 DD HC::cetuximab KK HC::MRK16 LC: anti-MDR1 anti-EGFR bispecific antibody version 3 | binds to both MDR-1 and EGFR |
